Data taken from ChEMBL document CHEMBL3351463, “Methyl effect in azumamides provides insight into histone deacetylase inhibition by macrocycles” (J Med Chem, 2014).

Target: T1, Polyamine deacetylase HDAC10 (Homo sapiens, UniProt Q969S8)
T1 sequence (Q969S8 whole entry): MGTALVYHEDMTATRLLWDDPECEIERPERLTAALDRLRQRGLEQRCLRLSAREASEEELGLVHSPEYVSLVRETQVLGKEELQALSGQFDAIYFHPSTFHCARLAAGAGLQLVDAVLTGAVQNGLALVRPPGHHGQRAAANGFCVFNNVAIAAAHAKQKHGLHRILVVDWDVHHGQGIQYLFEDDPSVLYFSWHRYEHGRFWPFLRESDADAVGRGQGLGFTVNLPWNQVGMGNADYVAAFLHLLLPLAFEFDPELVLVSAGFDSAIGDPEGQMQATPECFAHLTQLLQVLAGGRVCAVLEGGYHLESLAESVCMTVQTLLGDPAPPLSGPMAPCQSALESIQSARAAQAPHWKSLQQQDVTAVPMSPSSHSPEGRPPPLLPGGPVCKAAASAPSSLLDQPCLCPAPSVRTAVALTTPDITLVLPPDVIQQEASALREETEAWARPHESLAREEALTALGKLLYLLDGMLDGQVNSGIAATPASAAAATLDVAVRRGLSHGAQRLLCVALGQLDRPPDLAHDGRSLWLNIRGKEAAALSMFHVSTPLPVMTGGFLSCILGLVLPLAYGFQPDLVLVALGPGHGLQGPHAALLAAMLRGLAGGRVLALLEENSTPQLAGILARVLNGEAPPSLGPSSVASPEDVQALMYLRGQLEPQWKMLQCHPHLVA
Assay: Inhibition of human recombinant HDAC10 using Ac-Arg-His-Lys(Ac)-Lys(Ac)-AMC substrate incubated for 15 to 30 mins

O=C(CCCCCCC(=O)Nc1ccccc1)NO [VORINOSTAT]
Ki: 40 nM
